1 compound from PubChem BioAssay AID938 (National Center for Advancing Translational Sciences (NCATS), 2007) can be followed below.

The structures appear in SMILES notation. What follows is the remainder of the data, with few or none of the hits. Results filed as inconclusive are left out. Calls of active or inactive are those of the source. The call rests on the fitted dose curve; in most records, active means well fitted activation curve with a large enough effect; inconclusive means small, poorly fitted or top-dose-only effect; inactive means no such curve, though single readings can be large or run the other way.

This test in a line: qHTS Assay for Agonists of the Thyroid Stimulating Hormone Receptor: Activators of Intracellular cAMP Concentrations in Parental HEK 293. Further: % of control where 0% means no effect; nearly all actives have a fitted effect of over 55% in size. The following applies: parental HEK293 CNG cAMP sensor, membrane potential fluorescence; at 25.6 µM (top of the series). The source says:
NIH Chemical Genomics Center [NCGC]
NIH Molecular Libraries Screening Centers Network [MLSCN]
PI Name: Dr. Marvin Gershengorn
This cell based assay utilized a cyclic nucleotide gated ion channel (CNG) as a biosensor for cAMP induction. HEK 293 cells stably expressing the modified CNG were purchased from BD biosciences (http://www.atto.com/products/actone/features_benefits.shtml) . Stimulation of cAMP production causes the CNG to open and subsequent membrane depolarization to occur. A fluorescent membrane potential dye (BD biosciences) was utilized to detect cAMP stimulation in cells.
The cells were maintained in DMEM medium (Invitrogen) containing 10 % FBS (Hyclone), 100 units/ml Penicillin, 100 ug/ml Streptomycin (Invitrogen), and 250 ug/ml Geneticin (Invitrogen) and 1 ug/ml Puromycin (Invitrogen) at 37C in 5% CO2. […]
High Throughput Screening. […] 23 nl/well compound or control was then added to the assay plates, which were incubated for additional 30 min before reading a Envision fluorescence plate reader (Perkin Elmer) in bottom-read mode for fluorescence intensity (emission at 590 nm).
Keywords: cAMP, CNG Ion Channel, quantitative high throughput screening, qHTS, HTS, probe identification, CNG, cAMP, cyclic nucleotide gated ion channel PubChem
For orientation: qHTS replaces the single test concentration by a dilution series.
With `c1ccc2[nH]c(-c3cscn3)nc2c1`, the activation was inactive: 1.33%.
